# Experimental data taken from patent publication US20220194939A1, “Novel compounds and methods of use treating fructose-related disorders or diseases” (Colorado Research Partners, LLC, priority 2019, published 2022).
# Amino acid sequences for entries named in this document (tags omitted).
# UniProt P50053, whole entry: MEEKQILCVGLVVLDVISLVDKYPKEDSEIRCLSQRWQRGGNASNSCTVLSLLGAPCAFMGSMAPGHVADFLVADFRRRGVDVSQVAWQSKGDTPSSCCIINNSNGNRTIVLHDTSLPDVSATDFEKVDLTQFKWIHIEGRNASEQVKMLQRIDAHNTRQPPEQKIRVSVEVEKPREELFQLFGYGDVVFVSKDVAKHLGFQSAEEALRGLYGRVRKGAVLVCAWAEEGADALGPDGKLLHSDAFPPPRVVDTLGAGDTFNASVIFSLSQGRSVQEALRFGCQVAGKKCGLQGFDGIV
# Target: KHK (Homo sapiens, UniProt P50053)
# Test: coupled enzyme assay for KHK activity
# Details: read-out: KHK, IC50; purified human recombinant KHK, PK/LDH coupled assay, A340 at 25° C., 0.1 mM ATP, 0.2 mM fructose; isoform (KHK-C or KHK-A) not given; tested form: hydrochloride
# Source text: Specific coupled enzyme screening assays were developed for KHK-C and KHK-A using recombinant proteins. Purified human recombinant KHK-C and KHK-A were produced using by expression in E. coli BL-21 (DE3) using IPTG induction as a His-tagged fusion proteins and purified using Ni-NTA chromatography on His-Trap FF columns. For KHK-C, the coding region from NCBI refseq number NM_006488 was inserted at the Nde I site of pET28a(+) vector, which puts it downstream from an amino-terminal (His)6 tag and a thrombin cleavage site. The same was done for KHK-A using the coding regions from NCBI refseq number NM_000221.2. The protein was expressed in BL-21 (DE3) using IPTG induction and purified using Ni-NTA (GE His Trap FF) column. The protein was washed with 100 column volumes, eluted with 3 column volumes, and dialyzed with HEPES, pH 7.4 buffers containing 20, 500, and 0 mM imidazole, respectively. The dialysate was concentrated by ultrafiltration (10kD MWCO) to >15 mg/mL protein. The protein prep was >95% pure on SDS-PAGE and the molecular weight was confirmed by relative mobility to be 33,730 Da (34,826 expected).
# The assay uses the product of the KHK reaction, ADP, to drive a signal measured in real time for measuring the reaction rate. […] The disappearance of NADH is measured kinetically by monitoring A340 at 25° C. for 15 minutes. […]
smiles,measurement,value
Cc1cccc(-n2ncc3ccc(NC(=O)C(O)CN)cc32)c1 (stereo not shown),IC50,0.52 µM
